From patent US8933228B2, “Respiratory formulations and compounds for use therein” (Respivert, Ltd., priority 2010, dated 2015)

Molecular target: HCK enzyme (Homo sapiens (Human), UniProt P08631)
Test: HCK enzyme inhibition assay (FRET, Z'-LYTE)
Type: biochemical
Conditions: read-out: Enzyme Profile: IC50 Values HCK

COCC(=O)Nc1cc(Oc2ccc(NC(=O)Nc3cc(C(C)(C)C)nn3-c3ccc(C)cc3)c3ccccc23)ccn1 [Ref 2, N-(4-(4-(3-(3-tert-butyl-1-p-tolyl-1H-pyrazol-5-yl)ureido)naphthalen-1-yloxy)pyridin-2-yl)-2-methoxy acetamide, reference compound]
pIC50: 8.52

pIC50: −log10 of the molar value.
